# Patent publication US8044048B2, “Derivatives of sulindac, use thereof and preparation thereof” (Southern Research Institute, priority 2006, dated 2011)
# Amino acid sequences for entries named in this document (tags omitted). Residues count along the entry.
# UniProt P23219, 24-599: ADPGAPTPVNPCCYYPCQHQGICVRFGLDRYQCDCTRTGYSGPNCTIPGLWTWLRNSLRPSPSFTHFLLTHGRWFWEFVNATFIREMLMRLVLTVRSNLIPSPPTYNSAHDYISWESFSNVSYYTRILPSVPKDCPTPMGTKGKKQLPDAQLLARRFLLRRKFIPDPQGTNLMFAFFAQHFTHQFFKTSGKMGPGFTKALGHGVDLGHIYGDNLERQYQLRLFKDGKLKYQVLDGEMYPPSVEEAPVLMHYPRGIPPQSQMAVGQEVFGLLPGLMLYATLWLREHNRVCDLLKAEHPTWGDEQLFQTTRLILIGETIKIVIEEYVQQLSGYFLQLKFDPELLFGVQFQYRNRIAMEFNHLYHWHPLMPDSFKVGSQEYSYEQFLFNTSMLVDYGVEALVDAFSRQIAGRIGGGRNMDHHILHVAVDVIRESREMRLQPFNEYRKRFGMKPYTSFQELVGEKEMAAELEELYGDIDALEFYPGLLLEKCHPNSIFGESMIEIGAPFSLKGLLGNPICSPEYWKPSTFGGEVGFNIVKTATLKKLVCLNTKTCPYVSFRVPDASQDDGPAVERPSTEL
# Biological target: COX-1 (Homo sapiens, UniProt P23219)
# Test: COX-1 inhibitory activity
# Assay type: biochemical
compound,measurement,value
CS(=O)(=O)c1ccc(C2=C(c3ccccc3)C(=O)OC2)cc1 [Rofecoxib],IC50,> 300 µM
